Results published in paper PMC11196219.

Tested on: non-transfected 293T cells

`O=CC(CC1CCNC1=O)NC(=O)C(CC1CCCCC1)NC(=O)c1cc2ccccc2[nH]1` (stereo not shown) was tested. Which CC50 did it give?
Its CC50 is 51 µM.
